In PubChem BioAssay AID1189 (EPA DSSTox, 2008):
Some of these compounds have results that are not shown, active ones among them. Activity calls are given as the source filed them.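 Rule for the calls: active = a tumor-causing dose value with its tumor site reported for any sex and species group of a rodent or other animal cancer study; inconclusive = only studies judged inadequate by the national testing program; inactive = tested in at least one study, none positive.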 Entries that show only a call come without a potency.

Assay: DSSTox (CPDBAS) Carcinogenic Potency Database Summary SingleCellCall Results
Details: animal chronic carcinogenicity bioassays, CPDB summary call
Excerpt: The Carcinogenic Potency Database (CPDB) is a unique and widely used international resource of the results of over 6500 chronic, long-term animal cancer tests on over 1500 chemical substances. The CPDB provides easy access to the bioassay literature, with qualitative and quantitative analyses of both positive and negative experiments that have been published over the past 50 years in the general literature and by the National Cancer Institute/National Toxicology Program. The CPDB standardizes the diverse literature of cancer bioassays that vary widely in protocol, histopathological examination and nomenclature, and in the published author's choices of what information to provide in their papers. Results are reported in the CPDB for tests in rats, mice, hamsters, dogs, and nonhuman primates, and are based on the most positive result among all experiments for each sex-species. The DSSTox CPDBAS (all species) file incorporates data from the CPDB Summary Tables for the full list of over 1500 chemical substances tested in at least one species. A summary SingleCellCall, based on experimental bioassay results of one or more species, is provided for the entire DSSTox CPDBAS file (see Source URL).
An assignment of categorical carcinogenic activity based on minimal evidence for or against activity. […]

## N#CC(C#N)=Cc1ccccc1Cl
  outcome: inactive
